Results published in ChEMBL document CHEMBL4619808, “Tailoring the Physicochemical Properties of Antimicrobial Peptides onto a Thiazole-Based γ-Peptide Foldamer” (J Med Chem, 2020).

What was measured:
Escherichia coli = assay: Antimicrobial activity against Escherichia coli ATCC 8739 assessed as inhibition of microbial growth incubated for 24 hrs; format: functional; settings: ATCC 8739, 24 h
In short: (§1)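 Broth microdilution. Strains grown overnight on TSA at 37°C, suspended to 10⁸ CFU/mL in Tryptone-Sel, then diluted to 10⁶ CFU/mL in double-strength Mueller-Hinton broth. Two-fold serial dilutions in sterile water (pH 7.4–7.7) mixed 1:1 with inoculum. Incubation 24 h at 37°C. MIC is the lowest concentration inhibiting growth. Duplicate wells, three independent experiments.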

Bacillus subtilis = assay: Antimicrobial activity against Bacillus subtilis ATCC 6633 assessed as inhibition of microbial growth incubated for 24 hrs; format: functional; settings: ATCC 6633, 24 h; in short: as §1
Pseudomonas aeruginosa = assay: Antimicrobial activity against Pseudomonas aeruginosa ATCC 9027 assessed as inhibition of microbial growth incubated for 24 hrs; format: functional; settings: ATCC 9027, 24 h; in short: as §1
[1] = Hemolytic activity in human RBC assessed as induction of hemolysis incubated for 1 hr; format: cell-based, Erythrocyte; settings: red blood cells (erythrocytes), read-out: HD50
In short: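 Human RBCs washed in PBS and used at 5% packed cell volume, mixed 1:1 with two-fold serial dilutions in PBS (pH 7.4–7.7). Incubation 1 h at 37°C, then centrifugation at 1500g for 10 min at 5°C. Supernatant absorbance read at 490 nm against PBS (0%) and 1% SDS/Tris (100%) controls. HC50 from three independent experiments, double duplicate.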

Staphylococcus aureus = assay: Antimicrobial activity against Staphylococcus aureus ATCC 6538 assessed as inhibition of microbial growth incubated for 24 hrs; format: functional; settings: ATCC 6538, 24 h; in short: as §1

In the case of `CC[C@H](C)[C@H](NC(=O)CN)C(=O)NCC(=O)N[C@@H](C)C(=O)N[C@H](C(=O)N[C@@H](CC(C)C)C(=O)N[C@@H](CCCCN)C(=O)N[C@H](C(=O)N[C@@H](CC(C)C)C(=O)N[C@H](C(=O)N[C@H](C(=O)NCC(=O)N[C@@H](CC(C)C)C(=O)N1CCC[C@H]1C(=O)N[C@@H](C)C(=O)N[C@@H](CC(C)C)C(=O)N[C@H](C(=O)N[C@@H](CO)C(=O)N[C@@H](Cc1c[nH]c2ccccc12)C(=O)N[C@H](C(=O)N[C@@H](CCCCN)C(=O)N[C@@H](CCCNC(=N)N)C(=O)N[C@@H](CCCCN)C(=O)N[C@@H](CCCNC(=N)N)C(=O)N[C@@H](CCC(N)=O)C(=O)N[C@@H](CCC(N)=O)C(N)=O)[C@@H](C)CC)[C@@H](C)CC)[C@@H](C)O)[C@@H](C)O)C(C)C)C(C)C` [MELITTIN], the MIC (Escherichia coli) is reported as 3.4 µM, the MIC (Bacillus subtilis) is reported as 0.8 µM and the MIC (Pseudomonas aeruginosa) is reported as 3.1 µM. For the same molecule, the HC50 at 1 h [1] was 3000 nM and the MIC (Staphylococcus aureus) was 0.9 µM.
